Values joined by “and” are separate entries in the source; they are usually repeats but may differ in a detail not shown here. Equal values may be shown once.

Chains of the proteins cited; added tags and fusions are not shown. Lines headed by an entry give the natural chain unless they say otherwise; changes in a name come on top.
UniProt P41146: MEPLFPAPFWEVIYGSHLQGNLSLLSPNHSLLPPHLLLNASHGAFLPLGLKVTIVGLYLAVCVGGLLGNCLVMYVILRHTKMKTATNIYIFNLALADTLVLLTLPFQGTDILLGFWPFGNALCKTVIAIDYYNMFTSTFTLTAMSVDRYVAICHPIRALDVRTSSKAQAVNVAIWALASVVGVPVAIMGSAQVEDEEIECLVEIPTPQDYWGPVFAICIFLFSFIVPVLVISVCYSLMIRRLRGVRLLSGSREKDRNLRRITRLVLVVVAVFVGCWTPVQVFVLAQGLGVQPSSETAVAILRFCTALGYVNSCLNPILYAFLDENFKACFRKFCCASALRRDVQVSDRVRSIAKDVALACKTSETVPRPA
UniProt P35372, whole entry, looked up: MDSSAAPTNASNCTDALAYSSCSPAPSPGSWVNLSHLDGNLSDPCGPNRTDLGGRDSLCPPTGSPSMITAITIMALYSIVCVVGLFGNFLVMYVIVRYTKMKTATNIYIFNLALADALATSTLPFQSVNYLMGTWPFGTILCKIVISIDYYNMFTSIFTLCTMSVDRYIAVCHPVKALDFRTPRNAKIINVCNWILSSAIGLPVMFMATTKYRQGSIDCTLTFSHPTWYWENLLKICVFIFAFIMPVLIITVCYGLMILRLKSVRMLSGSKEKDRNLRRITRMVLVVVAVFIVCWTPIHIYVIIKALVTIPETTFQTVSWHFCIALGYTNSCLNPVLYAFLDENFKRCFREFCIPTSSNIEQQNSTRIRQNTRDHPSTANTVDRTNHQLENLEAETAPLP

The target in the first assay is Nociceptin receptor (Homo sapiens, UniProt P41146). Briefly: Human Nociceptin/Orphanin FQ Peptide (hNOP) Receptor Binding Assay.
For orientation: Ki means a dissociation constant, usually derived from enzyme kinetics or from competition with a known ligand. Low values mean tighter binding, high ones weaker binding. As for `CN(C)[C@]1(c2cccc(F)c2)CC[C@]2(CC1)CN(CC(=O)OC(C)(C)C)C(=O)N2CC1CCC1`, the inhibition constant (Ki) was 2 nM. On the same count and under the same terms, with `COCCOCCOCCOCCOCCOCCOCCNC(=O)CN1C[C@]2(CC[C@](c3ccccc3)(N(C)C)CC2)N(CC2CCC2)C1=O` the figure was 33 nM and 35 nM. Still for that read-out and setting: the same measure for `CNC(=O)CN1C[C@]2(CC[C@](c3ccccc3)(N(C)C)CC2)N(CCCOC)C1=O`: 62 nM; for `COc1ccc(NC(=O)CN2C[C@]3(CC[C@](c4ccccc4)(N(C)C)CC3)N(CC3CCC3)C2=O)nc1`: 1.6 nM.

The compound `CN(C)[C@]1(c2ccccc2)CC[C@]2(CC1)CN(CC(=O)Nc1cccc(S(C)(=O)=O)n1)C(=O)N2CC1CCC1` registered a Ki of 0.9 nM. The same measure, in the same setting: the same measure for `CN(C)[C@]1(c2ccccc2)CC[C@]2(CC1)CN(CC(=O)Nc1ccnc(C#N)n1)C(=O)N2CC1CCC1`: 1.9 nM.

In turn, `CN(C)[C@]1(c2ccccc2)CC[C@@]2(CC1)CN(CC(=O)N1CCOCC1)C(=O)N2CC1CC1` registered an inhibition constant (Ki) of 100 nM. The compound `CN(C)[C@]1(c2ccccc2)CC[C@]2(CC1)CN(CC(=O)Nc1cccc(C(N)=O)n1)C(=O)N2CC1CCC1` registered an inhibition constant (Ki) of 0.8 nM. As for `CN(C)[C@]1(c2ccccc2)CC[C@]2(CC1)CN(CC(=O)NCC1CCCC[C@H]1O)C(=O)N2CC1CCC1` (stereo not given in full), the inhibitory constant (Ki) was determined as 2.1 nM. On the same count and under the same terms, with `CN(C)[C@]1(c2ccccc2)CC[C@]2(CC1)CN(CC(=O)Nc1cnc(O)nc1)C(=O)N2CC1CCC1` the figure was 9.8 nM; with `CN(C)[C@]1(c2ccccc2)CC[C@]2(CC1)CN(CC(=O)Nc1cccc([S+](C)[O-])n1)C(=O)N2CC1CCC1` (stereo not given in full), 1.7 nM.

The target of the next assay is Mu-type opioid receptor (Homo sapiens, UniProt P35372). Briefly: Human Mu-Opioid Peptide (hMOP) Receptor Binding Assay.
Consider `CN(C)[C@]1(c2cccc(F)c2)CC[C@]2(CC1)CN(CC(=O)NCCO)C(=O)N2CC1CCC1`, for which the Ki worked out at 135 nM. Still for that read-out and setting: with `CN(C)[C@]1(c2ccccc2)CC[C@]2(CC1)CN(CC(=O)NCc1ccccc1O)C(=O)N2CC1CCC1` the figure was 16.5 nM; with `CNC(=O)CN1C[C@]2(CC[C@](c3ccccc3)(N(C)C)CC2)N(CC2(C)CCC2)C1=O`, 16.5 nM; with `CN(C)C(=O)CN(C)C(=O)CN1C[C@]2(CC[C@](c3ccccc3)(N(C)C)CC2)N(CC2CCC2)C1=O`, 175 nM. `Cn1cnc(CNC(=O)CN2C[C@]3(CC[C@](c4ccccc4)(N(C)C)CC3)N(CC3CCC3)C2=O)c1` registered a Ki of 27.5 nM. Still for that read-out and setting: with `CN(C)[C@]1(c2ccccc2)CC[C@]2(CC1)CN(CC(=O)Nc1ccnnc1)C(=O)N2CC1CCC1` the figure was 53.5 nM; with `COCCN1C(=O)N(CC(=O)NCCO)C[C@]12CC[C@](c1ccccc1)(N(C)C)CC2`, 630 nM; with `CN(C)[C@]1(c2ccccc2)CC[C@]2(CC1)CN(CC(=O)N1CCC[C@H]1C(N)=O)C(=O)N2CC1CCC1`, 47.5 nM. Same read-out and setting: the same measure for `COc1ncc(NC(=O)CN2C[C@]3(CC[C@](c4ccccc4)(N(C)C)CC3)N(CC3CCC3)C2=O)cn1`: 13.5 nM; for `Cc1cccc(NC(=O)CN2C[C@]3(CC[C@](c4ccccc4)(N(C)C)CC3)N(CC3CCC3)C2=O)n1`: 51.5 nM. The same measure, in the same setting: with `CN(C)[C@]1(c2ccccc2)CC[C@]2(CC1)CN(CC(=O)NCc1cocn1)C(=O)N2CC1CCC1` the figure was 12 nM; with `CN(C)[C@]1(c2ccccc2)CC[C@]2(CC1)CN(CC(=O)N1CCC(S(C)(=O)=O)CC1)C(=O)N2CC1(O)CCC1`, 235 nM; with `CN(C)[C@]1(c2ccccc2)CC[C@@]2(CC1)CN(CC(=O)N1CCOCC1)C(=O)N2`, 51.5 nM. Regarding `COCCOCCOCCOCCOCCOCCOCCOCCNC(=O)CN1C[C@]2(CC[C@](c3ccccc3)(N(C)C)CC2)N(CC2CCC2)C1=O`, the affinity, expressed as Ki, was 360 nM. Take `COc1ccnc(CNC(=O)CN2C[C@]3(CC[C@](c4ccccc4)(N(C)C)CC3)N(CC3CCC3)C2=O)n1`: the Ki was 2.7 nM.

`COc1ncncc1NC(=O)CN1C[C@]2(CC[C@](c3ccccc3)(N(C)C)CC2)N(CC2CCC2)C1=O` returned an inhibition constant (Ki) of 16.5 nM. The same measure, in the same setting: with `CN(C)[C@]1(c2ccccc2)CC[C@]2(CC1)CN(CC(=O)Nc1cc(C(N)=O)ccn1)C(=O)N2CC1CCC1` the figure was 50.5 nM. Same read-out and setting: the same measure for `CN(C)[C@]1(c2ccccc2)CC[C@]2(CC1)CN(CC(=O)N1CCOCC1)C(=O)N2CC1(O)CCC1`: 960 nM.

Take `CSc1[nH]nc(NC(=O)CN2C[C@]3(CC[C@](c4ccccc4)(N(C)C)CC3)N(CC3CCC3)C2=O)c1C#N`: the affinity, expressed as Ki, was 16.5 nM.

In turn, `COc1ccccc1CNC(=O)CN1C[C@]2(CC[C@](c3ccccc3)(N(C)C)CC2)N(CC2CCC2)C1=O` gave a Ki of 4.4 nM.

The compound `COCCCN1C(=O)N(CC(=O)Nc2cccc(OC)n2)C[C@]12CC[C@](c1ccccc1)(N(C)C)CC2` had an inhibitory constant (Ki) of 175 nM. In turn, `CN(C)[C@]1(c2ccccc2)CC[C@@]2(CC1)CN(CC(=O)NCCO)C(=O)N2CC1CCC1` had an inhibitory constant (Ki) of 80.5 nM. Same read-out and setting: with `CN(C)[C@]1(c2ccccc2)CC[C@]2(CC1)CN(CC(=O)Nc1ccncc1F)C(=O)N2CC1CCC1` the figure was 41.5 nM; with `Cc1cccc(CNC(=O)CN2C[C@]3(CC[C@](c4ccccc4)(N(C)C)CC3)N(CC3CCC3)C2=O)n1`, 2.3 nM. In turn, `CN(C)[C@]1(c2ccccc2)CC[C@]2(CC1)CN(CC(=O)Nc1cccc(S(C)(=O)=O)n1)C(=O)N2CC1CCC1` yielded a Ki of 23.5 nM. On the same count and under the same terms, with `CN(C)[C@]1(c2ccccc2)CC[C@]2(CC1)CN(CC(=O)Nc1ccccn1)C(=O)N2CC1CCC1` the figure was 53.5 nM; with `CN(C)[C@]1(c2ccccc2)CC[C@]2(CC1)CN(CC(=O)Nc1ncncc1C#N)C(=O)N2CC1CCC1`, 37.5 nM; with `CN(C)[C@]1(c2ccccc2)CC[C@]2(CC1)CN(CC(=O)Nc1cncnc1O)C(=O)N2CC1CCC1`, 16 nM. The same measure, in the same setting: with `CN(C)[C@]1(c2ccccc2)CC[C@]2(CC1)CN(CC(=O)Nc1ccc(C#N)cn1)C(=O)N2CC1CCC1` the figure was 62 nM; with `CN(C)[C@]1(c2ccccc2)CC[C@]2(CC1)CN(CC(N)=O)C(=O)N2CC1(O)CCC1`, 81.5 nM; with `CN(C)[C@]1(c2ccccc2)CC[C@]2(CC1)CN(CC(=O)N1CCS(=O)(=O)CC1)C(=O)N2CC1(O)CCC1`, 360 nM. Same read-out and setting: the same measure for `CNC(=O)CN(C)C(=O)CN1C[C@]2(CC[C@@](NC)(c3ccccc3)CC2)N(CC2CCC2)C1=O`: 370 nM; for `COCCNC(=O)CN1C[C@]2(CC[C@](c3ccccc3)(N(C)C)CC2)N(CC2CCC2)C1=O`: 60 nM; for `COc1ncccc1CNC(=O)CN1C[C@]2(CC[C@](c3ccccc3)(N(C)C)CC2)N(CC2CCC2)C1=O`: 10 nM. `CCN(C)[C@]1(c2ccccc2)CC[C@]2(CC1)CN(CC(=O)NC)C(=O)N2CC1CCC1` showed a Ki of 370 nM. Still for that read-out and setting: with `COc1ncc(CNC(=O)CN2C[C@]3(CC[C@](c4ccccc4)(N(C)C)CC3)N(CC3CCC3)C2=O)cn1` the figure was 29.5 nM.

Turning to `CN(C)[C@]1(c2ccccc2)CC[C@]2(CC1)CN(CC(=O)Nc1nccs1)C(=O)N2CC1CCC1`, the Ki is 81.5 nM. Consider `CN(C)[C@]1(c2ccccc2)CC[C@]2(CC1)CN(CC(=O)NC1COC1)C(=O)N2CC1(O)CCC1`, for which the affinity, expressed as Ki, was 44 nM.

With `CN(C)[C@]1(c2ccccc2)CC[C@]2(CC1)CN(CC(=O)Nc1ncccc1O)C(=O)N2CC1CCC1`, the Ki is 13.5 nM.

`CN(CCO)C(=O)CN1C[C@]2(CC[C@](c3ccccc3)(N(C)C)CC2)N(CC2CCC2)C1=O` came in with an inhibition constant (Ki) of 47.5 nM. Still for that read-out and setting: the same measure for `CN(C)[C@]1(c2ccccc2)CC[C@]2(CC1)CN(CC(=O)NC1COC1)C(=O)N2CC1CCC1`: 37 nM. The same measure, in the same setting: the same measure for `CN(C)[C@]1(c2ccccc2)CC[C@]2(CC1)CN(CC(=O)NCC1(O)CCC1)C(=O)N2CC1CCC1`: 33 nM; for `CN(C)[C@]1(c2ccccc2)CC[C@]2(CC1)CN(CC(=O)N1CCOC(CO)C1)C(=O)N2CC1CCC1` (stereo not given in full): 46 nM.

`CN(C)[C@]1(c2ccccc2)CC[C@@]2(CC1)CN(CC(=O)N1CCS(=O)(=O)CC1)C(=O)N2CC1CC1` gave a Ki of 4.4 nM. The same measure, in the same setting: the same measure for `COCCCN1C(=O)N(CC(=O)NCCC#N)C[C@]12CC[C@](c1ccccc1)(N(C)C)CC2`: 75.5 nM; for `CN(C)[C@]1(c2ccccc2)CC[C@]2(CC1)CN(CC(=O)NCc1cnco1)C(=O)N2CC1CCC1`: 10 nM; for `CN(C)CCNC(=O)CN1C[C@]2(CC[C@](c3ccccc3)(N(C)C)CC2)N(CC2CCC2)C1=O`: 63 nM.

Compound `CN(C)[C@]1(c2ccccc2)CC[C@]2(CC1)CN(CC(N)=O)C(=O)N2CC1(C#N)CCC1` registered an inhibition constant Ki of 17 nM. `COc1cncnc1NC(=O)CN1C[C@]2(CC[C@](c3ccccc3)(N(C)C)CC2)N(CC2CCC2)C1=O` showed a Ki of 37 nM. On the same count and under the same terms, with `CNC(=O)CN1C[C@]2(CC[C@](c3ccccc3)(N(C)C)CC2)N(CC2CC2)C1=O` the figure was 9.6 nM. Still for that read-out and setting: with `CN(C)[C@]1(c2ccccc2)CC[C@]2(CC1)CN(CC(=O)Nc1cncnc1)C(=O)N2CC1(O)CCC1` the figure was 99 nM; with `COc1cccc(CNC(=O)CN2C[C@]3(CC[C@](c4ccccc4)(N(C)C)CC3)N(CC3CCC3)C2=O)n1`, 6 nM; with `CN(C)[C@]1(c2ccccc2)CC[C@]2(CC1)CN(CC(=O)NCC(N)=O)C(=O)N2CC1(C#N)CCC1`, 44 nM. Consider `Cc1cc(NC(=O)CN2C[C@]3(CC[C@](c4ccccc4)(N(C)C)CC3)N(CC3CCC3)C2=O)no1`, for which the affinity, expressed as Ki, was 44 nM. The compound `CN(C)[C@]1(c2ccccc2)CC[C@]2(CC1)CN(CC(=O)Nc1cccc([S+](C)[O-])n1)C(=O)N2CC1CCC1` (stereo not given in full) showed a Ki of 37.3 nM. Compound `COc1cc(NC(=O)CN2C[C@]3(CC[C@](c4ccccc4)(N(C)C)CC3)N(CC3CCC3)C2=O)ccn1` had an inhibition constant Ki of 75.5 nM.

Compound `CNC(=O)CN1C[C@]2(CC[C@](c3ccccc3)(N(C)C)CC2)N(CC(C)C)C1=O` had a Ki of 47.5 nM. The same measure, in the same setting: with `CN(C)[C@]1(c2ccccc2)CC[C@]2(CC1)CN(CC(=O)Nc1ccc(C(N)=O)cn1)C(=O)N2CC1CCC1` the figure was 26.2 nM.

For the compound `CN(C)[C@]1(c2ccccc2)CC[C@]2(CC1)CN(CC(=O)Nc1ccccn1)C(=O)N2CC1(O)CCC1`, the Ki came to 100 nM.
